ChEMBL document CHEMBL5104167, “Development and profiling of mGlu7 NAMs with a range of saturable inhibition of agonist responses in vitro” (Bioorg Med Chem Lett, 2022)

Chains of the proteins cited; added tags and fusions are not shown.
UniProt P35400, whole entry: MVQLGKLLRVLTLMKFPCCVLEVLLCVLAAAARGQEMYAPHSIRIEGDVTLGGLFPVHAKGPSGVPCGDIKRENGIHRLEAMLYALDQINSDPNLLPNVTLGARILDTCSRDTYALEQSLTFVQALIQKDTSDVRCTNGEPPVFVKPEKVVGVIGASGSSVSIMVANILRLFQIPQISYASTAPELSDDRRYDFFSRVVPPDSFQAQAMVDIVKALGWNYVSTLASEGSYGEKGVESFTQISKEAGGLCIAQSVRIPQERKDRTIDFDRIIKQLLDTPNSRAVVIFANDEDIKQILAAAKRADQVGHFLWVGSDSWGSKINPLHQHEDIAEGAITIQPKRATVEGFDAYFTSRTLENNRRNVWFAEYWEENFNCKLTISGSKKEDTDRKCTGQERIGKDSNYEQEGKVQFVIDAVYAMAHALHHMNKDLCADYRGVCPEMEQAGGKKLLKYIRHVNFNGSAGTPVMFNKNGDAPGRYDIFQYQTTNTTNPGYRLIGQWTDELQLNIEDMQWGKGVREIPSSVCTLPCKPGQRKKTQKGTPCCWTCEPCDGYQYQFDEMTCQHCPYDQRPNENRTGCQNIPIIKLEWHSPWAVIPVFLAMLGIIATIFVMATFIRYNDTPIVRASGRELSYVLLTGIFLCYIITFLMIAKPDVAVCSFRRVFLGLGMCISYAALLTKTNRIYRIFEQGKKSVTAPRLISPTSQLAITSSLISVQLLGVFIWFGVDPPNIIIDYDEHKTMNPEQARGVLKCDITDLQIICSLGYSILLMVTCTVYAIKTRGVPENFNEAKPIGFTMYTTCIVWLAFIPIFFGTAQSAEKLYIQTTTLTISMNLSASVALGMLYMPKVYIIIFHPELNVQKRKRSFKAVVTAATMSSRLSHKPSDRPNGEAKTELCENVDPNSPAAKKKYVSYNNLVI
UniProt Q14831, whole entry: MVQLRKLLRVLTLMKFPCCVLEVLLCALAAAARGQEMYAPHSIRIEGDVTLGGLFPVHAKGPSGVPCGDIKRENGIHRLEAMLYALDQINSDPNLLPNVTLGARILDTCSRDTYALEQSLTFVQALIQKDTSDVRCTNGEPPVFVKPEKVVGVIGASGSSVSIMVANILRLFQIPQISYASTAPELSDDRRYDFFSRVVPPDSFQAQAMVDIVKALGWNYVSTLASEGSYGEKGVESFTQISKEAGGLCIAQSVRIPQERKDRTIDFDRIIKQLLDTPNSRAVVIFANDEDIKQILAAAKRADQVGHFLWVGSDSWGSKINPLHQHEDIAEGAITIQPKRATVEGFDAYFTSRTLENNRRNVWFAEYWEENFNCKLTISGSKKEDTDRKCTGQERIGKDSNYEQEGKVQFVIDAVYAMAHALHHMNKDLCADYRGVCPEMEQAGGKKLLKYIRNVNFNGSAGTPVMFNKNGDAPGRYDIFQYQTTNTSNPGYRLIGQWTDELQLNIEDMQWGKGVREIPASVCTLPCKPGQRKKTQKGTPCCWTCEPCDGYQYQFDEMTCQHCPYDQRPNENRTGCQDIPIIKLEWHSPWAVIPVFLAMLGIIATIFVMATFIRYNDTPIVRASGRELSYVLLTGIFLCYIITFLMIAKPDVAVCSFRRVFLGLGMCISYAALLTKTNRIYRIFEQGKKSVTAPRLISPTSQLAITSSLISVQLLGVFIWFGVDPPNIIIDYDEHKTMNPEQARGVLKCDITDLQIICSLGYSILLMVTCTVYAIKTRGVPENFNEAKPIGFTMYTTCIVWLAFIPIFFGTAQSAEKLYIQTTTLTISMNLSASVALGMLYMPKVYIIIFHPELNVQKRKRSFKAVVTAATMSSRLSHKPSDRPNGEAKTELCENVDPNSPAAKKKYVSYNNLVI

Each compound was assayed against Metabotropic glutamate receptor 7 (Rattus norvegicus, UniProt P35400) (assay: Negative allosteric modulation of rat mGlu7 in HEK cells expressing Galpha15 assessed as inhibition of L-AP4-induced response measured by calcium mobilization assay). Details: read-out: IC50.
Assay type: functional, cell-based
`COc1cc(C(=O)Nc2cc(OC(F)(F)F)ccc2-n2cncn2)ccc1OC(C)C` showed an IC50 of 890 nM. With `CCOc1ccc(C(=O)Nc2cc(OC(F)(F)F)ccc2-n2cncn2)cc1OC` the IC50 was 550 nM. `COc1ccc(-c2nnc(-c3cc(OC(F)(F)F)ccc3-n3cccn3)o2)cc1OC` was tested, and the IC50 was 1800 nM. For `COc1cc(F)c(-c2noc(-c3cc(Cl)ccc3-n3cncn3)n2)c(F)c1OC`, the IC50 was 3600 nM. `COc1ccc(-c2coc(-c3cc(Cl)ccc3-n3cncn3)n2)cc1OC` was tested, and the IC50 was 1900 nM. Compound `COc1cc(-c2noc(-c3cc(Cl)ccc3-n3cncn3)n2)cc(F)c1OC` has an IC50 of 2700 nM. `COc1ccc(-c2noc(-c3cc(Cl)ccc3-n3cncn3)n2)cc1OC` gave an IC50 of 1100 nM. With `COc1ccc(-c2nnc(-c3cc(Cl)ccc3-c3cn[nH]c3)o2)cc1OC` the IC50 was 1500 nM. Compound `COc1ccc(-c2nnc(-c3cc(Cl)ccc3-c3ccnn3C)o2)cc1OC` has an IC50 of 1600 nM.

Same assay, conditions: read-out: pIC50 (converted)
With `CCCOc1ccc(C(=O)Nc2cc(OC(F)(F)F)ccc2-n2cncn2)cc1OC` the IC50 was 794 nM. In the case of `COc1ccc(C(=O)Nc2cc(OC(F)(F)F)ccc2-n2cncn2)cc1OC`, the IC50 is reported as 794 nM. For `COc1ccc(-c2nnc(-c3cc(OC(F)(F)F)ccc3-c3ccnn3C)o2)cc1OC`, the IC50 was 1260 nM.

The compounds below were run against Metabotropic glutamate receptor 7 (Homo sapiens, UniProt Q14831). Details: not given.
For `COc1cc(C(=O)Nc2cc(OC(F)(F)F)ccc2-n2cncn2)ccc1OC(C)C`, the IC50 was 5200 nM.
